Structures are written as SMILES. Only a part is listed here, and it is no random draw. Active and inactive are the calls of the source.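 The calls were made as follows: active = mean inhibition of at least 75% with every replicate also reaching 75%; inconclusive = mean inhibition at least 75% but some replicate below; inactive = mean inhibition below 75%.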

The nature of this assay: Shn3 3'UTR reporter decrease in osteoblasts – cell-based, Clone20 osteoblasts, firefly luciferase, set 2, Schnurri-3 inhibitor project, primary screen (AID 588674).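 Also: 0% = median of neutral control wells and 100% = pilot-screen positive control compound.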 As to conditions: Clone20 osteoblast Shn3 3'UTR firefly luciferase, 24 h; at 12.5 µM; active compounds read high.
`CCC(=O)N(c1ccccc1)C1(COC)CCN(CCc2cccs2)CC1`: the inhibition (as a rule, the change of the read-out against control, counted positive when it falls) was inactive: 8.11%.

`CCC(=O)N(c1ccccc1)C1(COC)CCN(CCn2nnn(CC)c2=O)CC1`: the inhibition is inactive: 8.04%.

Source of the values: PubChem BioAssay AID588674 (Broad Institute, 2011).
